Assay results reported in patent US4774230A, “Glucuronic acid derivatives of opioid antagonists” (Ivax Laboratories, Inc., priority 1988, dated 1988).

Columns and labels:
[1] = test system: opioid-dependant animals (central nervous system); test: Rapid Quantitative In Vivo Assay for Narcotic Antagonist (skin tail temperature rise, CNS withdrawal sign); conditions: FIG. 1; doses as low as 10 μg/kg
Text: The Rapid Quantitative In Vivo Assay for Narcotic Antagonist of Katovich et al. (Substance and Alcohol Actions/Misuse, vol 5: 87095, 1984) was used. This assay is based on the extreme sensitivity of opioid-dependant animals to narcotic antagonists. Injection of these animals with a narcotic antagonist produces severe central nervous system withdrawal signs. One of these signs is an abrupt rise in the skin temperature of the tail.

[2] = analysis of blood, urine and feces after oral nalmefene (free nalmefene versus nalmefene glucuronide); assay type: in vivo, rats
Text: Such a high degree of biotransformation is common for this type of drug. However it was discovered that the relative concentrations of free nalmefene and nalmefene glucuronide in the feces of these animals were in marked contrast to the blood and urine. Whereas the ratio of nalmefene to nalmefene glucuronide in the blood and urine was about 1:100, in the feces the ratio was about 3:1.

## C=C1CC[C@@]2(O)[C@H]3Cc4ccc(O)c5c4[C@@]2(CCN3CC2CC2)[C@H]1O5 [nalmefene, 6-methylene-6-desoxy-N-cyclopropylmethyl-14-hydroxydihydronormorphine]
[1]
  rise in skin tail temperature: marked rise in skin tail temperature
[2]
  concentration of nalmefene glucuronide relative to free nalmefene: about 100 fold
